Measured values from article PMC7150870 (Toxins, 2020).

Legend:
[1] = system: HepG2, Caco-2, RAW 264.7, and HEK 293T cells; settings: human (HepG2, Caco-2, HEK 293T); mouse (RAW 264.7)
Caco-2 cells [2] = settings: human (Caco-2), mouse (RAW 264.7)
PK15 = settings: cited from earlier work
Caco-2 = settings: cited from earlier work
Caco-2 cells [3] = settings: cited from earlier work

Substance | IC50 [1] [nM] | percentage of DNA in comet tail with respect to the negative control (HEK 293T cells) | transepithelial transport, Apical Medium (Caco-2 cells [2]) | transepithelial transport, Basolateral Medium (Caco-2 cells [2]) | transepithelial transport, Caco-2 Cells (Caco-2 cells [2]) | transepithelial transport, Raw 264.7 Cells (Caco-2 cells [2]) | transepithelial transport, Total (Caco-2 cells [2]) | concentration causing DNA damage in PK15 (PK15) [nM] | concentration causing DNA damage in Caco-2 (Caco-2) [nM] | concentration with significant DNA damage (Caco-2 cells [3]) [nM]
beauvericin | > 50 | no significant DNA damage | 10.40 ± 3.89^a % | 2.31 ± 0.24^a % | 10.36 ± 0.98^d % | 0.57 ± 0.03^c % | 23.65 ± 3.33^a % | 500 | 12000 | –
enniatin A1 [ENN-A1] | > 50 | – | 9.52 ± 3.02^a % | 13.06 ± 0.45^b % | 2.09 ± 0.28^c % | 0.22 ± 0.03^b % | 24.89 ± 3.24^a % | – | – | 3000
enniatin A [ENN-A] | > 50 | – | 15.08 ± 5.18^ab % | 16.18 ± 3.17^b % | 10.76 ± 0.43^d % | 0.29 ± 0.04^b % | 42.31 ± 5.00^a % | – | – | 1500

Marks after values point to notes of the source that are not given here.
